# In US12453779B2, “Chemoselective thiol-conjugation with alkene or alkyne-phosphonothiolates and -phosphonates” (FORSCHUNGSVERBUND BERLIN E.V., priority 2018, dated 2025):
# Test system: Cetuximab
# Test: Cetuximab conjugation, anti-biotin Western blot
# Details: for modification without prior reduction of the disulfide bonds with DTT: non-reduced antibody
Compound,modification without prior reduction of the disulfide bonds with DTT,"degree of modification compared to the PT (reduced antibody, pH=7.4, lane 1 vs lane 3)","modification of the antibody fragments (heavy and light chain) (antibody reduced with DTT, pH=7.4 (lane 3) and pH=8.5 (lane 5))","labelling of the antibody in dependence of pH (reduced antibody, pH 7.4 to 8.5)"
biotin-maleimide,modification detected,higher compared to the PT,,
C=CP(=O)(OCC)SCCCCC[C@@H]1SC[C@@H]2NC(=O)N[C@@H]21 (some centres unmarked),no modification could be detected,,could be confirmed,higher for higher pH=8.5
